By MIC is commonly meant the lowest concentration found to suppress growth.

The text below walks through data of PMC6023086, “Improving the Activity of Trp-Rich Antimicrobial Peptides by Arg/Lys Substitutions and Changing the Length of Cationic Residues” (Biomolecules, 2018).

The test system of this assay is Escherichia coli ATCC 25922. The format is cell-based. The conditions noted are these: E. coli ATCC 25922, Mueller-Hinton broth, 5 × 10^5 cfu/mL, 37 °C, 16 h; run in triplicate, range of all three experiments. On the procedure:
The antibacterial activity of the Tritrp-derived peptides and other AMPs was assessed against E. coli ATCC 25922, as a representative of Gram-negative bacteria, incubated in Mueller-Hinton broth media (Table 2). […] Arg-to-Lys mutations were correlated with a decrease in activity for almost all peptides. […] The lack of sensitivity of the activity of the Tritrp3 peptide to the nature of the positively charged residues prompted a more detailed study of the structure-activity relationship. Tritrp7 and Tritrp8 are analogs of Tritrp3 where only a single Pro residue is mutated by Ala. These mutations are known to alter the 3D structure of the peptides when interacting with sodium dodecyl sulfate (SDS) micelles, specifically reducing the helicity of the original Tritrp3 peptide (Table 1).
The antibacterial activity for the peptides in this study against E. coli ATCC 25922 was determined by the broth microdilution method. […] The plates were incubated at 37 °C for 16 h, and the minimal inhibitory concentration was determined after incubation as the minimal peptide concentration at which cell growth was not observed.

≈ marks a conversion by molar mass, not a printed value.

Compound `CC[C@H](C)[C@H](NC(=O)CN)C(=O)NCC(=O)N[C@@H](C)C(=O)N[C@H](C(=O)N[C@@H](CC(C)C)C(=O)N[C@@H](CCCCN)C(=O)N[C@H](C(=O)N[C@@H](CC(C)C)C(=O)N[C@H](C(=O)N[C@H](C(=O)NCC(=O)N[C@@H](CC(C)C)C(=O)N1CCC[C@H]1C(=O)N[C@@H](C)C(=O)N[C@@H](CC(C)C)C(=O)N[C@H](C(=O)N[C@@H](CO)C(=O)N[C@@H](Cc1c[nH]c2ccccc12)C(=O)N[C@H](C(=O)N[C@@H](CCCCN)C(=O)N[C@@H](CCCNC(=N)N)C(=O)N[C@@H](CCCCN)C(=O)N[C@@H](CCCNC(=N)N)C(=O)N[C@@H](CCC(N)=O)C(=O)N[C@@H](CCC(N)=O)C(N)=O)[C@@H](C)CC)[C@@H](C)CC)[C@@H](C)O)[C@@H](C)O)C(C)C)C(C)C` [Melittin, reference compound] returned a minimum inhibitory concentration (MIC) of 2 µM (≈ 5.69 µg/mL).
